Assay results as given in patent US8697888B2, “Substituted (1-(methylsulfonyl)azetidin-3-yl)(heterocycloalkyl)methanone analogs as antagonists of muscarinic acetylcholine M1 receptors” (Vanderbilt University, priority 2012, dated 2014).

Target: mAChR M1 (UniProt P11229)
Assay: mAChR M1 cell-based functional assay (calcium mobilization, antagonist mode)
Conditions: concentration of antagonist decreasing calcium flux by 50%; EC80 acetylcholine response; CHO-K1 cells expressing mAChR M1; read-out: Potency (IC50)
Source text: Chinese hamster ovary (CHO-K1) cells stably expressing rat (r)M1 were purchased from the American Type Culture Collection and cultured according to their indicated protocol. CHO cells stably expressing human (h)M2, hM3, and hM5 were described previously (Levey, et al., 1991); hM1 and hM4 cDNAs were purchased from Missouri S&T cDNA Resource; rM4 cDNA was provided by T. I. Bonner (National Institutes of Health, Bethesda, Md.). rM2 and rM3 were cloned from a rat brain cDNA library and sequence verified. hM1, rM2, rM3, hM4, and rM4 cDNAs were used to stably transfect CHO-K1 cells purchased from the American Type Culture Collection using Lipofectamine-2000. To make stable rM2, hM2, rM3, hM4, and rM4 cell lines for use in calcium mobilization assays, these cells also were stably transfected with a chimeric G-protein (Gqi5) (provided by B. R. Conklin, University of California, San Francisco) using Lipofectamine 2000. rM1, hM1, rM3, hM3, rM5, and hM5 cells were grown in Ham's F-12 medium containing 10% heat-inactivated fetal bovine serum (FBS), 20 mM HEPES, and 50 μg/mL G418 sulfate. rM2-Gqi5, hM2-Gqi5, and hM4-Gqi5 cells were grown in the same medium also containing 500 μg/mL Hygromycin B. Stable rM4-Gqi5 cells were grown in DMEM containing 10% heat-inactivated FBS, 20 mM HEPES, 400 μg/mL G418 sulfate, and […].
For high throughput measurement of antagonist inhibited increases in intracellular calcium, CHO-K1 cells stably expressing muscarinic receptors were plated in growth medium lacking G418 and hygromycin at 15,000 cells/20 μL/well in Greiner 384-well black-walled, tissue culture (TC)-treated, clear-bottom plates (VWR). Cells were incubated overnight at 37° C. and 5% CO2. The next day, cells were washed using an ELX 405 (BioTek) with four washes (80 μL) of assay buffer then aspirated to 20 μL. Next, 20 μL of 16 μM Fluo-4/acetoxymethyl ester (Invitrogen, Carlsbad, Calif.) prepared as a 2.3 mM stock in DMSO and mixed in a 1:1 ratio with 10% (w/v) Pluronic F-127 and diluted in assay buffer was added to the wells and the cell plates were incubated for 50 min at 37° C. and 5% CO2. Dye was removed by washing with the ELX 405 (four 80 μL washes of assay buffer) then aspirated to 20 μL. Compound master plates were formatted in an 11 point CRC format (1:3 dilutions) in 100% DMSO with a starting concentration of 10 mM using the BRAVO liquid handler (Agilent). Test compound CRCs were then transferred to daughter plates (240 nL) using the Echo acoustic plate reformatter (Labcyte, Sunnyvale, Calif.) and then diluted into assay buffer (40 μL) to a 2× stock using a Thermo Fisher Combi (Thermo Fisher Scientific, Waltham, Mass.).
Calcium flux was measured using the Functional Drug Screening System (FDSS) 6000 (Hamamatsu Corporation, Tokyo, Japan) as an increase in the fluorescent static ratio. Compounds were applied to cells (20 μL, 2×) using the automated system of the FDSS 6000 at 4 s into the 300 s protocol and the data were collected at 1 Hz. At 144 s into the 300 s protocol, 10 μL of an EC20 concentration of the muscarinic receptor agonist acetylcholine was added (5×), followed by the addition of 12 μL an EC80 concentration of acetylcholine at the 230 s time point (5×). Agonist activity was analyzed as a concentration-dependent increase in calcium mobilization upon compound addition. Positive allosteric modulator activity was analyzed as a concentration-dependent increase in the EC20 acetylcholine response. Antagonist activity was analyzed as a concentration-dependent decrease in the EC80 acetylcholine response. Concentration-response curves were generated using a four-parameter logistical equation in XLfit curve fitting software (IDBS, Bridgewater, N.J.) for Excel (Microsoft, Redmond, Wash.) or Prism (GraphPad Software, Inc., San Diego, Calif.).
The calcium mobilization assay was used to determine “potency”.

SMILES	IC50 [nM]
O=C(C1CN(S(=O)(=O)c2cccc(Cl)c2Cl)C1)N1CC2CN(c3ccncc3)CC2C1 (stereo not shown) [B58]	660
Cc1cc(S(=O)(=O)N2CC(C(=O)N3CCN(c4ccncc4)CC3)C2)cnc1Cl [B7]	200
O=C(C1CN(S(=O)(=O)c2ccc3ncccc3c2)C1)N1CCN(c2ccncc2)CC1 [B15]	550
O=C(C1CN(S(=O)(=O)c2cccc3cnccc23)C1)N1CCN(c2ccncn2)CC1 [B20]	790
O=C(C1CN(S(=O)(=O)c2cccc3nsnc23)C1)N1CC2CN(c3ccncc3)CC2C1 (stereo not shown) [B53]	2500
O=C(C1CN(S(=O)(=O)c2cccc3ncccc23)C1)N1CCN(c2ccncc2)CC1 [B26]	2000
Cc1cc2c(S(=O)(=O)N3CC(C(=O)N4CCN(c5ccncc5)CC4)C3)cccc2cn1 [B22]	910
O=C(C1CN(S(=O)(=O)c2ccc3c(c2)OCO3)C1)N1CCN(c2ccncc2)CC1 [B9]	340
O=C(C1CN(S(=O)(=O)c2cccc(Cl)c2)C1)N1CCN(c2ccncc2)CC1 [B36]	> 10000
O=C(C1CN(S(=O)(=O)c2cccc3cnccc23)C1)N1CCN(c2ccncc2)CC1 [B1]	37
O=C(C1CN(S(=O)(=O)c2cccc3c(Cl)nc(Cl)cc23)C1)N1CCN(c2ccncc2)CC1 [B30]	2900
O=C(C1CN(S(=O)(=O)c2cccc(Cl)c2F)C1)N1CCN(c2ccncc2)CC1 [B34]	> 10000
Cc1cc2c(S(=O)(=O)N3CC(C(=O)N4CC5CN(c6ccncc6)CC5C4)C3)cccc2cn1 (stereo not shown) [B60]	1200
